Test results: PubChem BioAssay AID2662 (National Center for Advancing Translational Sciences (NCATS), 2010)
Where “and” joins values, the source holds several entries; their conditions need not be identical. Identical values can stand only once. This is a selection; strong and weak results do not stand in their true shares. Calls of active or inactive are those of the source. Calls follow the shape of the dose curve; as a rule, active = well fitted inhibition curve with a large enough effect in the polarisation, with a control signal flat (not every such curve was filed as active); inconclusive = small, poorly fitted or top-dose-only effect, or effect the other way, or a change in a side signal; inactive = no such curve, though single readings can be large or run the other way; the % refers to the polarisation.

By UniProt entry, the sequences of proteins in these tests, tags left out.
UniProt Q03164, whole entry, looked up: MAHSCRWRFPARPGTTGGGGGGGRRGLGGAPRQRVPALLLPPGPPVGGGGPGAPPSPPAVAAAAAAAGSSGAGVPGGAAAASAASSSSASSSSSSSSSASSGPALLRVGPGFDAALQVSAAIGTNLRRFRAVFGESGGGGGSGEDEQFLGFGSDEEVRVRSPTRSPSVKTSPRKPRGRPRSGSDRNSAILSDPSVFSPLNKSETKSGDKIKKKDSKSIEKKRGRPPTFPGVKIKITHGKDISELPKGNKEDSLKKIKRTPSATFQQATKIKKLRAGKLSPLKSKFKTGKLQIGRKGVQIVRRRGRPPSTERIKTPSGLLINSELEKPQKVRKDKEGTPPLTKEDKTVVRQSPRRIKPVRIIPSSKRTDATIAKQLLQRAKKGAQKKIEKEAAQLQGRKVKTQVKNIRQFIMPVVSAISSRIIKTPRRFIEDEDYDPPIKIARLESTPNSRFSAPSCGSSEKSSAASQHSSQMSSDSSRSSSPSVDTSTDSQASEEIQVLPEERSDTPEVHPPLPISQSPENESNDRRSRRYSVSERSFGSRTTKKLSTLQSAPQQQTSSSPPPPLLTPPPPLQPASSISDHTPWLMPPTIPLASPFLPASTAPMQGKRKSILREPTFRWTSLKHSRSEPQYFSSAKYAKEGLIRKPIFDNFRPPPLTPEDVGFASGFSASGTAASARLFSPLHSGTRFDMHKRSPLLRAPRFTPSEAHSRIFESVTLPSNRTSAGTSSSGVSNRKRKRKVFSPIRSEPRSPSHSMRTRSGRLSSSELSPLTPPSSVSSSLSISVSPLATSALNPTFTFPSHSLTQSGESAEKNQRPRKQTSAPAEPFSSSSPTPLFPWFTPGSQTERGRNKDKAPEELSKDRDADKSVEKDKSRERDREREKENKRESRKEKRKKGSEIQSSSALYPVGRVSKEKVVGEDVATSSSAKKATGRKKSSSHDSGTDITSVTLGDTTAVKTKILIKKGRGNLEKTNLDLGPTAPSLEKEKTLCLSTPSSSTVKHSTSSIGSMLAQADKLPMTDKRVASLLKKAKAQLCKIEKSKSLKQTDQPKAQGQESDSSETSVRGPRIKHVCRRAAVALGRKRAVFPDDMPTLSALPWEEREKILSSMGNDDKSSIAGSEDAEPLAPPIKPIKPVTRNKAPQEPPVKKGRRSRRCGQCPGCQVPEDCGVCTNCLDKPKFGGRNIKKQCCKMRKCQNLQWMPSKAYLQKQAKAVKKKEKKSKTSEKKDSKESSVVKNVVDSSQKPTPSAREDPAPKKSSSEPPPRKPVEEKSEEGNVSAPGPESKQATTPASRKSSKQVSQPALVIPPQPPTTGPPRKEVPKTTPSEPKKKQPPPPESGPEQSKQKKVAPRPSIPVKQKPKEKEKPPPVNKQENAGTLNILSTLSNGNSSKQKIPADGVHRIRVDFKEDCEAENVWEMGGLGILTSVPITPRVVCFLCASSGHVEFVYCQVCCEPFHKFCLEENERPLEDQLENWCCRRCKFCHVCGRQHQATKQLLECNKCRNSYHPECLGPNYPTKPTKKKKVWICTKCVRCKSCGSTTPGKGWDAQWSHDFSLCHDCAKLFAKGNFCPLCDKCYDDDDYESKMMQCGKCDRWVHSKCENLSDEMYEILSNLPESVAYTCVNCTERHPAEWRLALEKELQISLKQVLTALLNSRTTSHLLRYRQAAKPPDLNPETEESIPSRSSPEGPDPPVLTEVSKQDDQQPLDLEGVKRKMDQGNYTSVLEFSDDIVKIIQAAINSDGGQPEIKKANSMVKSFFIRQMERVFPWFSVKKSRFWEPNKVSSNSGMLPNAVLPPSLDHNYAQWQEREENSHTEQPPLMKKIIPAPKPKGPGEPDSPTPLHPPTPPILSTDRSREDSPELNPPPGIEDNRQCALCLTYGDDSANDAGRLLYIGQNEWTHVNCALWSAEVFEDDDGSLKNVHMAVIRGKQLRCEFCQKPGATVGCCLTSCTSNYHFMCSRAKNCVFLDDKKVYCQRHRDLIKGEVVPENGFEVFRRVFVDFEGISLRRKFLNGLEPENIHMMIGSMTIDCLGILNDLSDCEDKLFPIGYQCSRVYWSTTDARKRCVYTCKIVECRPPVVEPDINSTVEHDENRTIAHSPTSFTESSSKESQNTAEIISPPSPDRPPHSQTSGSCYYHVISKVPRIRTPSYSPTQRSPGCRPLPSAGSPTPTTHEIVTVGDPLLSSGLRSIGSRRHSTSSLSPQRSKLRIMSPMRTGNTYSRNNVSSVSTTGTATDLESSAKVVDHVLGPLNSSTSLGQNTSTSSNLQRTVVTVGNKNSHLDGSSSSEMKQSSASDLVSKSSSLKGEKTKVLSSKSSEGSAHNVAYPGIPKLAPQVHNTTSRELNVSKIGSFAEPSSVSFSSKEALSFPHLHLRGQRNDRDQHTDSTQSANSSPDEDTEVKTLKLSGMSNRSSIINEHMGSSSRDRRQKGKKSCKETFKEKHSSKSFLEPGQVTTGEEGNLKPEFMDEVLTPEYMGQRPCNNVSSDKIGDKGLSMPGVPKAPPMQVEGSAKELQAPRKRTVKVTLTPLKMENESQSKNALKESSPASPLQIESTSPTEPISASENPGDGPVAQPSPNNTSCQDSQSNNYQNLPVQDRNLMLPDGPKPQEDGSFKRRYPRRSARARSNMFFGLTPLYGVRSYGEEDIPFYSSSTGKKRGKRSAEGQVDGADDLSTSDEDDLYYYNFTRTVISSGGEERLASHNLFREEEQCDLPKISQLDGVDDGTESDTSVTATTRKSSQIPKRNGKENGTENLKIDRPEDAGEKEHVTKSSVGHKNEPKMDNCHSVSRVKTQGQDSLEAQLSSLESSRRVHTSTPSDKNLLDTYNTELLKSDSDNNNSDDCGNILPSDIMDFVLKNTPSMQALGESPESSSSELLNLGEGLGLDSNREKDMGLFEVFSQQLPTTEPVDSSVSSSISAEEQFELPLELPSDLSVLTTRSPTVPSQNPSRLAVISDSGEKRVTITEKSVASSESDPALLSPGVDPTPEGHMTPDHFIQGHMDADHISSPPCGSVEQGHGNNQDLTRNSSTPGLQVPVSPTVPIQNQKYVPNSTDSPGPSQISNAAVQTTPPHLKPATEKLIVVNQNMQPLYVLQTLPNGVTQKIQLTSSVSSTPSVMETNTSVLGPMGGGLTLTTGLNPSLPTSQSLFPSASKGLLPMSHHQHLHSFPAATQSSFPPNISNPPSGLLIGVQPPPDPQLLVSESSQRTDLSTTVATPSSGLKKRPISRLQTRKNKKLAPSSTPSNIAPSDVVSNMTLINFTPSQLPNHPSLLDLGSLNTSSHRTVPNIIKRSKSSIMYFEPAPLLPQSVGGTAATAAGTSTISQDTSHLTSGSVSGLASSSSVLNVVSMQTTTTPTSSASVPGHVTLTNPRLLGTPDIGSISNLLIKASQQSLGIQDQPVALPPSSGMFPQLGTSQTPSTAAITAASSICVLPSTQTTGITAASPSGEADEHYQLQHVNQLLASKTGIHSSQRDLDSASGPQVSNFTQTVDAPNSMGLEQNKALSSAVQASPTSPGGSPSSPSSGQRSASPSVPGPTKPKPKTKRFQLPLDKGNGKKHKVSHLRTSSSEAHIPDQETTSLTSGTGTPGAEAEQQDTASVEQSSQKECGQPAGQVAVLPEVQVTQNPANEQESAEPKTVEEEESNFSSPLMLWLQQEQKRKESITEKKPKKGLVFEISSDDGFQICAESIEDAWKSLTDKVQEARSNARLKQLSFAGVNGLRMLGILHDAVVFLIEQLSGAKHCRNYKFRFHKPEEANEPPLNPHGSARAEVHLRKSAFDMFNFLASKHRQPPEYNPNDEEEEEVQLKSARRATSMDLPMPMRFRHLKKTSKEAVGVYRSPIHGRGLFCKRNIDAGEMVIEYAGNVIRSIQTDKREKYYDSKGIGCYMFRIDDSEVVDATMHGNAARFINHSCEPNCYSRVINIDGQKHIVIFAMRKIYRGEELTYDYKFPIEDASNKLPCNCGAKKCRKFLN

What follows are molecules tested against Histone-lysine N-methyltransferase 2A (Homo sapiens) (UniProt Q03164) (assay: qHTS Fluorescence Polarization Assay for Inhibitors of MLL CXXC domain - DNA interaction). Details: MLL-CXXC / FITC-HOXA9 DNA fluorescence polarization; at 115 µM (top of the series).

Row | Compound | activity change, negative = inhibition
1 | O=C(O)CNc1ccc([As](=O)(O)O)cc1 | inactive: -4.41%
2 | O=[N+]([O-])c1cccc(NC2=NCC(CBr)S2)c1 (stereo not given) | inactive: -1.81%
3 | O=[N+]([O-])c1ncn(CCn2ncnc2[N+](=O)[O-])n1 | inactive: -4.72%
4 | CC(C)(C)C(=O)NC(Sc1ccncn1)C(Cl)(Cl)Cl (stereo not given) | inactive: -0.115%
5 | O=C(Nc1cc([As](=O)(O)O)ccc1O)c1ccccc1 | inactive: 12.6%
6 | CC1CCN(C(=O)Oc2c(Cl)cc(Cl)c3cccnc23)CC1 | inactive: -20.8%
7 | CC(C)=N/N=C(\N)N[N+](=O)[O-] | inactive: -9.08%
8 | CN(C)C(=O)OCCc1n(C)cc[n+]1C | inactive: 1.32%
9 | CCN(/C(=N/P(=O)(N1CCOCC1)N1CCOCC1)N1CCOCC1)c1ccc(OC)cc1 | inactive: -0.395%
10 | Nc1ccc([As](=O)(O)c2ccc(N)cc2)cc1 | inactive: -14.4%
11 | C[N+]1=C2C=CC=CC=C2SC12C([N+](=O)[O-])=CC([N+](=O)[O-])=C[C-]2[N+](=O)[O-] (stereo not given) | inactive: -19.8%
12 | Cc1ccc(NP(=O)(Oc2ccccc2)Oc2ccccc2)nc1 | inactive: 3.13%
13 | O=[N+]([O-])c1cc([N+](=O)[O-])c(CCNc2ccccc2)c([N+](=O)[O-])c1 | inactive: -2.12%
14 | CC(=O)N1C2C3N(C(C)=O)C1C1N(C(C)=O)C(C(N1C(C)=O)N3C(C)=O)N2C(C)=O | inactive: 0.721%
15 | O=[N+]([O-])c1cccc2n[nH]nc12 | inactive: 14.6%
16 | COc1ccc(C2=NCC(CBr)S2)cc1 (stereo not given) | inactive: 11.3%
17 | Oc1ccccc1CNc1ccccn1 | inactive: 8.02%
18 | O=C(NC(Sc1ccncn1)C(Cl)(Cl)Cl)c1ccccc1 (stereo not given) | inactive: 4.34%
19 | Cc1c2non([O-])c-2c(C)[n+](=O)[n+]1[O-] | inactive: -21.8%
20 | Nc1cc(N)c2nonc2c1[N+](=O)[O-] | inactive: -3.15%
21 | CC(C)CC(=O)NC(Sc1ccc(Cl)cc1)C(Cl)(Cl)Cl (stereo not given) | inactive: -7.93%
22 | CN1CCCC(OC(=O)C(c2ccccc2)c2ccccc2)C1 (stereo not given) | inactive: -1.45%
23 | Clc1ccc(Cl)c(NC2=NCC(CBr)S2)c1 (stereo not given) | inactive: 14.1%
24 | COc1ccccc1OP(=O)(Nc1ccc(C)cn1)Oc1ccccc1OC | inactive: 3.9%
25 | Cc1ccc(OP(=O)(Nc2nccs2)Oc2ccc(C)cc2)cc1 | inactive: 5.92%

Row | Compound | activity change, negative = inhibition
26 | Cc1ccc(N/C(=N/P(=O)(N2CCOCC2)N2CCOCC2)N2CCOCC2)cc1 | inactive: 2.36%
27 | NC(=O)c1cc([N+](=O)[O-])cc([N+](=O)[O-])c1N | inactive: 0.999%
28 | Nc1cccc2ccc([As](=O)(O)O)cc12 | inactive: -23.3%
29 | CCN(N=Nc1nonc1N)c1nonc1N | inactive: 7.06%
30 | O=[N+]([O-])c1cc([N+](=O)[O-])c(CCN2CCOCC2)c([N+](=O)[O-])c1 | inactive: -2.76%
31 | Cc1cc(SC(NC(=O)c2ccc(F)cc2)C(Cl)(Cl)Cl)ncn1 (stereo not given) | inactive: 2.39%
32 | CCOP(=O)(Nc1ccccc1)OCC | inactive: -7.39% and inactive: 9.72%
33 | CN(C(=O)Cc1ccc(Cl)c(Cl)c1)[C@H]1CCCC[C@@H]1N1CCCC1 | inactive: 0.651% and inactive: -17.9%
34 | Cc1ccc(NP(=O)(Oc2ccccc2F)Oc2ccccc2F)nc1 | inactive: -7.65%
35 | O=P(Nc1nc2ccc(Cl)cc2s1)(c1ccccc1)c1ccccc1 | inactive: 1.58%
36 | O=C(O)c1ccccc1[As](=O)(O)O | inactive: -4.9%
37 | Cc1ccccc1OP(=O)(Nc1ccccn1)Oc1ccccc1C | inactive: -12.5%
38 | CN(C)C(=O)Oc1noc2ccccc12 | inactive: -8.31%
39 | O=C(OC1CN2CCC1CC2)c1ccccc1 (stereo not given) | inactive: 5.22% and inactive: -4.03%
40 | CCC(=O)N1C2C3N(C(=O)CC)C1C1N(C(=O)CC)C(C(N1C(=O)CC)N3C(=O)CC)N2C(=O)CC | inactive: 5.06%
41 | COC(=O)c1cc2c(s1)N=C(c1ccccc1)N(C)P2(=O)N1CCOCC1 (stereo not given) | inactive: -3.53%
42 | CC(=O)NC(SC(=S)N(CC(C)C)CC(C)C)C(Cl)(Cl)Cl (stereo not given) | inactive: 0.262%
43 | Cc1ccc(OP(=O)(Nc2ccccn2)Oc2ccc(C)cc2)cc1 | inactive: 6.58%
44 | c1ccc(-c2nn[nH]n2)c(-c2nn[nH]n2)c1 | inactive: -1.8%
45 | Cc1ccc(NP(=O)(Oc2cccc(C)c2)Oc2cccc(C)c2)nc1 | inactive: 0.812%
46 | CCOC(=O)NC(Sc1ccccc1)C(Cl)(Cl)Cl (stereo not given) | inactive: -2.57%
47 | O=C(NC1CCS(=O)(=O)C1)NP(=S)(Oc1ccccc1)Oc1ccccc1 (stereo not given) | inactive: -0.962%
48 | CCNC(=S)/N=C(\N)N[N+](=O)[O-] | inactive: -1.11%
49 | CC(=O)Nc1ccc([As](=O)(O)O)c(O)c1 | inactive: -11.1%
50 | CC(=O)Nc1ccc(Oc2c([N+](=O)[O-])cc([N+](=O)[O-])cc2[N+](=O)[O-])cc1 | inactive: -1.26%

Row | Compound | activity change, negative = inhibition
51 | C[C@H]1OP(=O)(Oc2ccccc2)C[C@@H]2O[C@@H]21 (stereo not given in full) | inactive: 0.926%
52 | C[C@@H]1C=CCP(=O)(Oc2ccccc2)O1 (stereo not given in full) | inactive: 11.4%
53 | CC(=O)c1ccc(N2CC2c2ccncc2)cc1 (stereo not given) | inactive: -16.9%
54 | CC(C)(C)C(=O)NC(Sc1ccccc1)C(Cl)(Cl)Cl (stereo not given) | inactive: -7.51%
55 | O=P1(Nc2nc3ccc(Cl)cc3s2)COc2ccccc2O1 (stereo not given) | inactive: -3.21%
56 | CCOc1ccc(C2=NCC(CBr)S2)cc1 (stereo not given) | inactive: 10.4%
57 | c1nnnn1CCn1cnnn1 | inactive: -0.977%
58 | O=P(Nc1nccs1)(c1ccccc1)c1ccccc1 | inactive: 2.02%
59 | CC(C)C(=O)NC(Sc1ccccc1)C(Cl)(Cl)Cl (stereo not given) | inactive: 13.6%
60 | O=C(OC1CN2CCC1CC2)c1cccc(Cl)c1 (stereo not given) | inactive: 10.3%
61 | C(Cc1nn[nH]n1)Cc1nn[nH]n1 | inactive: 7.02%
62 | Nc1ccc([As](=O)(O)c2ccc([N+](=O)[O-])cc2)cc1 | inactive: -2.27%
63 | O=[As](O)(c1ccccc1)c1ccc(O)cc1 | inactive: 16.7%
64 | CC(=O)NC(SC(=S)N(C)C)C(Cl)(Cl)Cl (stereo not given) | inactive: -5.05%
65 | O=[N+]([O-])c1ncn(CCn2cnc([N+](=O)[O-])n2)n1 | inactive: 3.66%
66 | O=[N+]([O-])c1ccc(O)c(/C=N/Nc2ccc([N+](=O)[O-])cc2[N+](=O)[O-])c1 | inactive: -14.3%
67 | CN(C(=O)Cc1ccccc1)[C@H]1CC[C@@]2(CCCO2)C[C@@H]1N1CCCC1 | inactive: -10.8%
68 | O=P(Nc1nc2ccccc2s1)(c1ccccc1)c1ccccc1 | inactive: -1.38%
69 | C[C@H]1OP(=O)(Oc2ccccc2)[C@H](O)[C@H](O)[C@H]1N=[N+]=[N-] (stereo not given in full) | inactive: 5.75%
70 | CN(C)C1(CNC(=O)c2ccc(Cl)c(S(N)(=O)=O)c2)CCCCC1 | inactive: -5.25%
71 | O=P(Nc1ccccn1)(c1ccc(Br)cc1)c1ccc(Br)cc1 | inactive: 1.31%
72 | Nc1cccc([As](=O)(O)c2ccccc2)c1 | inactive: 7.23%
73 | Cc1ccc(OCC(=O)OC2CN3CCC2CC3)cc1 (stereo not given) | inactive: 6.65%
74 | O=[As](O)(c1cccs1)c1cccs1 | inactive: -0.813%
75 | O=P1(Nc2ccc(Br)cn2)COc2ccccc2OC1 | inactive: -5.44%

Row | Compound | activity change, negative = inhibition
76 | O=P1(Nc2ncccn2)COc2ccccc2OC1 | inactive: -7.02%
77 | CN(C)C1(CNC(=O)c2ccc(S(C)(=O)=O)cc2)CCCCC1 | inactive: -3.4%
78 | O=C(/C=C/c1ccccc1)OC1CN2CCC1CC2 (stereo not given) | inactive: 12.3%
79 | Cc1nn(-c2ccccc2)c2c1P(=O)(N1CCOCC1)N(C)C(c1ccccc1)=N2 (stereo not given) | inactive: -8.25%
80 | Cc1ccc(C(=O)OC2CN3CCC2CC3)cc1 (stereo not given) | inactive: -25.8%
81 | CC1CCC(C(C)C)C(OP(=O)(Nc2ccccn2)c2ccccc2)C1 (stereo not given) | inactive: -1.75%
82 | CN(C(=O)Cc1ccc(Cl)c(Cl)c1)[C@@H]1CCCC[C@H]1N1CCCC1 | inactive: -0.14% and inactive: -12%
83 | CC(C)/C=N\N=C(\N)N[N+](=O)[O-] | inactive: -3.25%
84 | O=[As](O)(c1ccccc1Br)c1ccccc1Br | inactive: -4.98%
85 | Clc1n[nH]nc1-c1nn[nH][15n]1 | inactive: -6.27%
86 | CC(C)(C)C(=O)NC(Sc1ncccn1)C(Cl)(Cl)Cl (stereo not given) | inactive: 3.38%
87 | CCC1=CC2Cc3nc4ccc(Cl)cc4c(N)c3C(C1)C2 (stereo not given) | inactive: 39.5%
88 | O=P1(Nc2ccccn2)COc2ccccc2OC1 | inactive: 8.98%
89 | CCOP(=O)(NC(=NC(C)c1ccccc1)NC(C)c1ccccc1)OCC (stereo not given) | inactive: -6.58%
90 | CCOP(=O)(Nc1ccc(C)cn1)OCC | inactive: -4.83%
91 | CN(CCCl)Cc1cc(Cl)c(NC2=NCCN2)c(Cl)c1 | inactive: 3.67%
92 | COc1cc(C2NCCC3(OCCO3)C2(C)C)cc(OC)c1OC (stereo not given) | inactive: 5.61%
93 | CCOP(=O)(Nc1cccc2ccccc12)OCC | inactive: 1.71%
94 | Cc1ccc(NCCc2c([N+](=O)[O-])cc([N+](=O)[O-])cc2[N+](=O)[O-])cc1 | inactive: -5.15%
95 | Nc1cccc2c([As](=O)(O)O)cccc12 | inactive: -6.36%
96 | CCCOP(=S)(Nc1nc(N)cc(=O)[nH]1)OCCC | inactive: -3.66%
97 | Cc1cccc(OCC(=O)OC2CN3CCC2CC3)c1 (stereo not given) | inactive: 7.41%
98 | O=[As](O)(c1cccc(O)c1)c1cccc(O)c1 | inactive: 52.1%
99 | O=C(OC1CN2CCC1CC2)c1ccc(Cl)cc1 (stereo not given) | inactive: -1.2%
100 | CN(C(=O)Cc1ccc(Cl)c(Cl)c1)[C@@H]1CC[C@]2(CCCO2)C[C@H]1N1CCCC1 | inactive: -21.3%
